Target: D(3) dopamine receptor (Homo sapiens, UniProt P35462)
Assay: Agonist activity at dopamine D3 receptor in human U2OS-D3 cells assessed as EA-tagged beta-arrestin translocation after 1.5 hrs by luminescence based beta-galactosidase assay relative to dopamine
Assay type: functional, cell-based

The chains behind the UniProt entries cited, without tags or fusion partners.
UniProt P35462, whole entry: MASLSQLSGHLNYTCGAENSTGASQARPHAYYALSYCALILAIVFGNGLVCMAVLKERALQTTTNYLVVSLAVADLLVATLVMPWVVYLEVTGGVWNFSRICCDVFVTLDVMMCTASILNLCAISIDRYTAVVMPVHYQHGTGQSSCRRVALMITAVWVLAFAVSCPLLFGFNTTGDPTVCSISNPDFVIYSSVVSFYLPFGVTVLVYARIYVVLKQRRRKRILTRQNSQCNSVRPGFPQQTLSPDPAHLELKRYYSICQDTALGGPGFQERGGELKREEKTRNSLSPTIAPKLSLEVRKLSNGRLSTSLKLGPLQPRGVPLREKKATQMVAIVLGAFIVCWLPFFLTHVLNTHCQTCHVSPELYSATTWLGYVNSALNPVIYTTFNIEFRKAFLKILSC

For `CCCN(CCC)C1CCc2ccc(O)cc2C1` (racemic), which Emax is on record?
The Emax was 103%.

— ChEMBL document CHEMBL2157876, “Identification of a 2-phenyl-substituted octahydrobenzo[f]quinoline as a dopamine D₃ receptor-selective full agonist ligand” (Bioorg Med Chem, 2012)
